# Experimental data as given in PubChem BioAssay AID720504 (National Center for Advancing Translational Sciences (NCATS), 2013).
# Protein sequences, listed by entry. Tags and fused reporters are not part of them.
# UniProt P53350, whole entry: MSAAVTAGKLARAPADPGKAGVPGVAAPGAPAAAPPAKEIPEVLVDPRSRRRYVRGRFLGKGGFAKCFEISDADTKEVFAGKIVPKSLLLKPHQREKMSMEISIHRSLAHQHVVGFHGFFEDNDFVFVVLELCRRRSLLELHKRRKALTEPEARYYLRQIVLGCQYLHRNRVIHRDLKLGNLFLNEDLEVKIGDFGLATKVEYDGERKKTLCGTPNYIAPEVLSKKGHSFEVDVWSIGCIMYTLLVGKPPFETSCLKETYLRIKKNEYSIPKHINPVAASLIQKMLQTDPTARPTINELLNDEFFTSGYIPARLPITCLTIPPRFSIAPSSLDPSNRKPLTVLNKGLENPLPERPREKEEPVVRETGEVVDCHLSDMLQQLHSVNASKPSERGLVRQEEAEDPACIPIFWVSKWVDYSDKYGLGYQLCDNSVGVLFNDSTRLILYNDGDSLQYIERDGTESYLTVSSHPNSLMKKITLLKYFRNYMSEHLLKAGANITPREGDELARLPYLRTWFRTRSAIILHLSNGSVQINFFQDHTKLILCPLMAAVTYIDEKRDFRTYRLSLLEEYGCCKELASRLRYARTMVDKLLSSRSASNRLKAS
# This is a selection; strong and weak results do not stand in their true shares. Some results for these compounds are left out of this collection, so the calls shown say nothing about other tests. Records with an inconclusive call do not appear. Activity calls are given as the source filed them. Calls follow the shape of the dose curve; as a rule, active = well fitted inhibition curve with a large enough effect; inconclusive = small, poorly fitted or top-dose-only effect; inactive = flat fitted curve, though single readings scatter.
# Target: Serine/threonine-protein kinase PLK1 (Homo sapiens) (UniProt P53350)
# Assay: qHTS for Inhibitors of PLK1-PDB (polo-like kinase 1 - polo-box domain): Primary Screen; also: nearly all actives have a fitted effect of over 65% in size; as to max response, negative = inhibition: series mostly up to about 57 µM
# Conditions: Plk1 PBD binding of FITC phosphopeptide, fluorescence polarization
# % is scaled to controls: 0 for no effect and ±100 for the full control effect; potency is read from the fitted curve at half-maximal effect.
Compound,"max response, negative = inhibition",Potency
COc1ccc(Br)c(C(=O)NCC2(N3CCCCC3)CCCCC2)c1,inactive: -4.04%,
C=C(C)C#CC(O)(C(=O)OC1CCN(C)CC1)c1ccccc1 (stereo unspecified),inactive: -7.56%,
CN(C)c1cccc(C(=O)NCC2(N(C)C)CCCCC2)c1,inactive: -3.17%,
CC(C)Oc1ccc(C(=O)NCC2(N(C)C)CCCCC2)cc1,inactive: -1.06%,
O=C(OCCN1CCCC1)C(O)(c1ccccc1)c1ccccc1,inactive: 0.269%,
O=C(OC1CN2CCC1CC2)C(CO)(c1ccccc1)c1ccccc1 (stereo unspecified),inactive: -1.09%,
COc1cccc(C(=O)NCC2(N3CCCCC3)CCCCC2)c1,inactive: -8.91%,
COc1ccc(Cl)cc1C(=O)NCC1(N(C)C)CCCCC1,inactive: 0.929%,
O=C(NCC1(N2CCCCC2)CCCCC1)c1cccc(Cl)c1,inactive: -5.82%,
CN(C)C1(CNC(=O)c2ccc(Br)cc2)CCCCC1,inactive: -5.25%,
COc1cc(C(=O)NCC2(N(C)C)CCCCC2)c([N+](=O)[O-])cc1OC,inactive: -12.4%,
C=CCN1CCN(CCOC(=O)C(O)(c2ccccc2)c2ccccc2)CC1,inactive: 3.13%,
O=C(NCC1(N2CCCCC2)CCCCC1)c1cc(F)c(F)cc1Cl,inactive: -5.93%,
Cc1cc(C(=O)NCC2(N3CCCCC3)CCCCC2)ccc1[N+](=O)[O-],inactive: -12.8%,
CCN1CCCC(OC(=O)C2(O)c3ccccc3C=Cc3ccccc32)C1 (stereo unspecified),inactive: -13.3%,
O=C(NCC1(N2CCCCC2)CCCCC1)c1cccc(Br)c1,inactive: 0.334%,
COc1ccc(C(=O)NCC2(N(C)C)CCCCC2)cc1,inactive: 1.4%,
Cc1ccccc1C(=O)NCC1(N2CCCCC2)CCCCC1,inactive: -5.93%,
CN(C)C1CCCC1OC(=O)C(O)(c1ccccc1)c1ccccc1 (stereo unspecified),,active: 23.8 µM
CN(C)c1ccc(C(=O)NCC2(N(C)C)CCCCC2)cc1,inactive: 0.939%,
CC(C)N1C(=O)CC2(CCN(CCOC(=O)C(O)(c3ccccc3)c3ccccc3)CC2)C1=O,inactive: -3.86%,
CCN(CC)CC(C)C(C)OC(=O)C(O)(c1ccccc1)c1ccccc1 (stereo unspecified),inactive: -13.6%,
COc1cc(SC)ccc1C(=O)NCC1(N(C)C)CCCCC1,inactive: -1.27%,
Cc1ccc(C(=O)NCC2(N3CCCCC3)CCCCC2)cc1,inactive: -9.39%,
O=C(NCC1(N2CCCCC2)CCCCC1)c1cc([N+](=O)[O-])ccc1Cl,inactive: -2.27%,
CN1[C@@H]2CC[C@H]1CC(OC(=O)C(O)(c1ccccc1)c1ccccc1)C2 (stereo partly specified),inactive: -3.84%,
